Test results as given in US6344477B1, “Prostaglandin e agonists for treatment of dry eye” (Alcon Manufacturing, Ltd., priority 1998, dated 2002).

By UniProt entry, the sequences of proteins in these tests, tags left out. Residues count along the entry.
UniProt P43116, whole entry: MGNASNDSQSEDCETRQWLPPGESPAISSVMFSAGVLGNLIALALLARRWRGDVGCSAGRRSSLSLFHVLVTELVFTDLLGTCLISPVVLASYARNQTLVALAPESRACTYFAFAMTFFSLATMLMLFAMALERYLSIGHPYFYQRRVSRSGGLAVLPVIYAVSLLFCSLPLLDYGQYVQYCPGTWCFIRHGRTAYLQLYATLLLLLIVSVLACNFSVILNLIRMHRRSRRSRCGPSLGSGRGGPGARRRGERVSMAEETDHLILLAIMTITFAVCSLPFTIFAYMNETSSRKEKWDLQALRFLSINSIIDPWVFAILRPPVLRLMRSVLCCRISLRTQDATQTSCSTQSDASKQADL
UniProt A0A061ILF4, 1-488: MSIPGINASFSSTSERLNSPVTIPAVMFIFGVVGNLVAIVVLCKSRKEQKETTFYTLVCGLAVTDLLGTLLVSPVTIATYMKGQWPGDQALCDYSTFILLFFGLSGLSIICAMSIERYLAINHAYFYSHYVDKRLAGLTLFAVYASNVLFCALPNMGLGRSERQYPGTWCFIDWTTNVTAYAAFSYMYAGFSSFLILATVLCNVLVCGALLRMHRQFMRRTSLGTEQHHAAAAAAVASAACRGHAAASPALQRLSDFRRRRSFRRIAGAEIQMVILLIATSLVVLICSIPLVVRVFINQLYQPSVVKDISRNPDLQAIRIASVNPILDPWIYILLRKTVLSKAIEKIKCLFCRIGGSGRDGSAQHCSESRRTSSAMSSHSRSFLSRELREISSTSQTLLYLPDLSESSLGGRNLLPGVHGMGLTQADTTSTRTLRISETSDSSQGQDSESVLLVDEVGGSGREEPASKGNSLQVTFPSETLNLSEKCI

Tests used:
[1] = biological target: EP2 Receptors in Immortalized Human Non-pigmented Ciliary Epithelial Cells (Homo sapiens, UniProt P43116); assay: cAMP production (radioimmunoassay) via EP2 receptors in immortalized human non-pigmented ciliary epithelial cells
[2] = biological target: EP4 Receptors in Chinese Hamster Ovary Cells (Cricetulus griseus, UniProt A0A061ILF4); assay: cAMP production (radioimmunoassay) via EP4 receptors in Chinese hamster ovary cells; settings: read-out: Potency (EC50, nM) at EP4 Receptors in Chinese Hamster Ovary Cells, 15-60 min at 23° C.

EC50 [2]: > 10000 nM
Compound: O=C(O)COC/C=C\C[C@@H]1[C@@H](/C=C/[C@@H](O)C2CCCCC2)[C@H](O)C[C@H]1Cl
Receptor selectivity EP2 versus EP4 ([1]; comparison of EC50 at EP2 and EP4 receptors): more EP2-selective
EC50 ([1]; read-out: Potency (EC50, nM) at EP2 Receptors in Immortalized Human Non-pigmented Ciliary Epithelial Cells, cAMP production, 15-60 min at 23° C.): 700 nM
